The assay addresses Free fatty acid receptor 1 (Homo sapiens, UniProt O14842). In words: Agonist activity at human GPR40 expressed in HEK293 cells assessed as increase in intracellular Ca2+ flux by FLIPR assay relative to linoleic acid. Type of assay: functional, cell-based. Background: Calcium flux is commonly read through the fluorescence of an indicator in the cells.

Protein sequences, listed by entry. Tags and fused reporters are not part of them.
UniProt O14842, whole entry: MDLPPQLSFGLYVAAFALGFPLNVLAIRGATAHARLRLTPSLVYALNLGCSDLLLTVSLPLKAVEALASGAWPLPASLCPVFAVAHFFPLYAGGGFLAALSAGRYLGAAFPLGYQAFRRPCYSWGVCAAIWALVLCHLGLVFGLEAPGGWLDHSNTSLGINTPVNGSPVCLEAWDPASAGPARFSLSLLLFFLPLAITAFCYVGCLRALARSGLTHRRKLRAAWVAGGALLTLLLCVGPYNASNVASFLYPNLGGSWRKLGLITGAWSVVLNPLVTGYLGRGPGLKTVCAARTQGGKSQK

Our source for the Emax values is ChEMBL document CHEMBL3867481, “GPR40 agonists for the treatment of type 2 diabetes mellitus: The biological characteristics and the chemical space” (Bioorg Med Chem Lett, 2016).

The Emax is the size of the effect at its maximum, as opposed to the concentration needed. For `CC#C[C@@H](CC(=O)O)c1ccc(OCc2ccc(CN3CCCc4cccc(OC)c43)s2)cc1`, the Emax turned out to be 84%.
